Data taken from PMC8694140, “Synthesis and photobiological applications of naphthalimide–benzothiazole conjugates: cytotoxicity and topoisomerase IIα inhibition” (RSC Advances, 2021).

Amino acid sequences for entries named in this document (tags omitted). A change or cut given only in a name is not applied to a line headed by its entry.
UniProt P11388: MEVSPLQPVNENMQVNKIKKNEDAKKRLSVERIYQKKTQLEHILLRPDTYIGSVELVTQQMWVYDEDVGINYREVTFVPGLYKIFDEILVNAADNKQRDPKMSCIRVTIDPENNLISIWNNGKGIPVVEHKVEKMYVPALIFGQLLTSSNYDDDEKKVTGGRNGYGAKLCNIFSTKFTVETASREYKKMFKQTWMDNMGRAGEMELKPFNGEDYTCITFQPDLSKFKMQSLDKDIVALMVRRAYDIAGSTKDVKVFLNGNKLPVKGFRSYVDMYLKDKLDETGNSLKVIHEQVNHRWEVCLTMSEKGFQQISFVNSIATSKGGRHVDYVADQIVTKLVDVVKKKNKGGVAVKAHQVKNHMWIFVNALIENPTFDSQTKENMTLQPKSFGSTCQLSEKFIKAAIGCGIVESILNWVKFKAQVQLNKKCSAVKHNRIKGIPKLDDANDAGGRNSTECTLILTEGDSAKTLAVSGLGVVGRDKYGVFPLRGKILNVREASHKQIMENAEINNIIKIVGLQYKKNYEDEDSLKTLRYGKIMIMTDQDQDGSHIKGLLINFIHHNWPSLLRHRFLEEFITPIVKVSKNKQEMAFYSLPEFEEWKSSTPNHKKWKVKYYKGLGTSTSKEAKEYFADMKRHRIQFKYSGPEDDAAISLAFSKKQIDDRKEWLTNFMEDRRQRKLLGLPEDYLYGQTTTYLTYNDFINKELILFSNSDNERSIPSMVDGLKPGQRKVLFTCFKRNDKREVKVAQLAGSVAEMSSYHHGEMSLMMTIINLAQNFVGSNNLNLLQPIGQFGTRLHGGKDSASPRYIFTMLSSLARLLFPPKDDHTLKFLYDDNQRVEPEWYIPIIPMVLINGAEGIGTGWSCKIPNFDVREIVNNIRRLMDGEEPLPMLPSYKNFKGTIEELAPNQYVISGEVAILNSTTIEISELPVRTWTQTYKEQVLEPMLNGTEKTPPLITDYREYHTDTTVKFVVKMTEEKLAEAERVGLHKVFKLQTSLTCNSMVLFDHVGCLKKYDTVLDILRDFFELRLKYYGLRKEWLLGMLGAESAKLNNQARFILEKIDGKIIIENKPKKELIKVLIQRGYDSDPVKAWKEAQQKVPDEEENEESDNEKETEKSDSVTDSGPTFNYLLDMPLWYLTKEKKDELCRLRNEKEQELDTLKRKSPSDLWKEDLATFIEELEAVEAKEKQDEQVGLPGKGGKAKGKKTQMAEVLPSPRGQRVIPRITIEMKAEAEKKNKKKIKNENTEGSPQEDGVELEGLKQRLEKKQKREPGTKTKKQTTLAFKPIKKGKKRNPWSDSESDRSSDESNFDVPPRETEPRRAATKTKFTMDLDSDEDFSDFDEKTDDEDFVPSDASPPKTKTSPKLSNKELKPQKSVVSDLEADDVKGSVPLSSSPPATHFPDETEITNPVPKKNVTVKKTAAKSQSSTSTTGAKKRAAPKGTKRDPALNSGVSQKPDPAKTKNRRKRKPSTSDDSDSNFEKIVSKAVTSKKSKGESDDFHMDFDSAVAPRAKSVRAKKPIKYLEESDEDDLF

Molecular target: human type IIa topoisomerase (Homo sapiens, UniProt P11388)
Assay: Relaxation assay of human topoisomerase IIa (supercoiled pHOT1 plasmid DNA, agarose gel)
Type: biochemical
Conditions: positive control, 25 μM per figure legend
Excerpt: The unwinding of DNA double helix is highly recommended at the time of replication and transcription in cell division which causes the helical tension to rise in the rest of the molecule of DNA. Topoisomerase, the nuclear enzyme, drives the topological changes and releases the tension of DNA, thus, necessary for cell proliferation.[28,29] Especially human type II topoisomerase (topo IIa) has been found an effective target in cancer treatment.[30,31] […] In TOPO II inhibition assay, supercoiled plasmid DNA was treated with human topoisomerase II in the presence of the reference compound (etoposide) or tested compounds at concentrations of 1, 5, 10, and 50 μM.
A further experiment was repeated to determine the more accurate concentration value of compounds required for topoisomerase inhibition. The concentrations 0.1, 0.5, 1, 1.5, 2, and 3 μM were taken for both compounds (Fig. 3).
The assay of human type IIa topoisomerase mediated relaxation of supercoiled plasmid DNA was performed using reaction buffer (20 μl) (5 mM dithiothreitol, 0.5 M Tris–HCl, pH 8.0, 20 mM ATP, 1.50 M NaCl, 300 μg ml^−1 BSA, and 100 mM MgCl2) having supercoiled pHOT1 plasmid DNA (500 ng) and human type IIa topoisomerase enzyme (4 units). The reaction mixtures were incubated for 30 min at 37 °C, followed by adding 10% sodium dodecyl sulfate (2 μl) to stop the reaction. […]

SMILES: COc1cc([C@@H]2c3cc4c(cc3[C@@H](O[C@@H]3O[C@@H]5CO[C@@H](C)O[C@H]5[C@H](O)[C@H]3O)[C@H]3COC(=O)[C@H]23)OCO4)cc(OC)c1O [Etoposide, reference compound]
- inhibition of topoisomerase II by reference compound: Inhibition of topoisomerase II was detected
